In patent US20230330254A1 (Regeneron Pharmaceuticals, Inc., priority 2022, published 2023) one finds EC50 data, which are given here for 3 substances.

Amino acid sequences for entries named in this document (tags omitted). Residues count along the entry.
UniProt F8V479, 24-463: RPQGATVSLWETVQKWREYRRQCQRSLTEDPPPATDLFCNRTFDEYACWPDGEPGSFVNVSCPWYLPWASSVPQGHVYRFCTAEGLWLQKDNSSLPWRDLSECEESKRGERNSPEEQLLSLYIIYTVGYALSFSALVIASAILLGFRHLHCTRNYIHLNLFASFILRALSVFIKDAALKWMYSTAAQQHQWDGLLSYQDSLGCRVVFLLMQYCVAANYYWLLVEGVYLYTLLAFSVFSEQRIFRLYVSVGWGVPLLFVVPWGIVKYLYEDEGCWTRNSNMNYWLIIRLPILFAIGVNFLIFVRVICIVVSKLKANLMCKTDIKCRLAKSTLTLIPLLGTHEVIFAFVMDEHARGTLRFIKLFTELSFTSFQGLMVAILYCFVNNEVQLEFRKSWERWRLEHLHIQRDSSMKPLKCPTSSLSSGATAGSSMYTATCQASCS
UniProt P47871, 26-477: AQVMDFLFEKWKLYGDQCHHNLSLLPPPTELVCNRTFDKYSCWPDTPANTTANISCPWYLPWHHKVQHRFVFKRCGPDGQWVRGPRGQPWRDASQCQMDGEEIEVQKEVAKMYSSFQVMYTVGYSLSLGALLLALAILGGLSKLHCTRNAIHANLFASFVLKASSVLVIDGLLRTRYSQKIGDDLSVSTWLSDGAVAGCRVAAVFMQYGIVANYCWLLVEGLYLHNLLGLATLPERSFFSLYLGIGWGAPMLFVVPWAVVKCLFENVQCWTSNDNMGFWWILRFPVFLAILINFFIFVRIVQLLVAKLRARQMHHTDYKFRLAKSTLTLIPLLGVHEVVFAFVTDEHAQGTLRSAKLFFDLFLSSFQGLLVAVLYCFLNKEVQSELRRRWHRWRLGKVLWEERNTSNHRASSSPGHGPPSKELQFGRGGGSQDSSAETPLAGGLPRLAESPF
UniProt P43220, 24-463: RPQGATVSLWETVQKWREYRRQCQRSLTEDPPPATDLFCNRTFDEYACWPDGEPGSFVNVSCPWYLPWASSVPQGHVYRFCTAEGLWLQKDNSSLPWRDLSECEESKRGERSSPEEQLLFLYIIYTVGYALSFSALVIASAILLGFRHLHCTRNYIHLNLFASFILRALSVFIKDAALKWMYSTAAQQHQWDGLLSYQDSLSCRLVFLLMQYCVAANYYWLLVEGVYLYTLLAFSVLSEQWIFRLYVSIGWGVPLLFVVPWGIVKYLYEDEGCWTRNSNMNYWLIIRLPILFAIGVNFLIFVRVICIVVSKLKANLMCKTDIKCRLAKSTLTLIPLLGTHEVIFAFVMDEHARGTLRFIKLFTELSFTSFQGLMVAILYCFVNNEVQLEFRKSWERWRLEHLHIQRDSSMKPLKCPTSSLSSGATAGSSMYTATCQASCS

Type in all cases: cell-based
In assay [1] the target is T1, human glucagon-like peptide 2 receptor (GLP2R) (Homo sapiens, UniProt O95838).
T1 construct: full-length human GLP1R, cynomolgus GLP1R, human glucagon receptor (GCGR), human glucagon-like peptide 2 receptor (GLP2R); expressed in transfected cells; host or cells: HEK293/CRE-Luc
T1 sequence (O95838 1-553): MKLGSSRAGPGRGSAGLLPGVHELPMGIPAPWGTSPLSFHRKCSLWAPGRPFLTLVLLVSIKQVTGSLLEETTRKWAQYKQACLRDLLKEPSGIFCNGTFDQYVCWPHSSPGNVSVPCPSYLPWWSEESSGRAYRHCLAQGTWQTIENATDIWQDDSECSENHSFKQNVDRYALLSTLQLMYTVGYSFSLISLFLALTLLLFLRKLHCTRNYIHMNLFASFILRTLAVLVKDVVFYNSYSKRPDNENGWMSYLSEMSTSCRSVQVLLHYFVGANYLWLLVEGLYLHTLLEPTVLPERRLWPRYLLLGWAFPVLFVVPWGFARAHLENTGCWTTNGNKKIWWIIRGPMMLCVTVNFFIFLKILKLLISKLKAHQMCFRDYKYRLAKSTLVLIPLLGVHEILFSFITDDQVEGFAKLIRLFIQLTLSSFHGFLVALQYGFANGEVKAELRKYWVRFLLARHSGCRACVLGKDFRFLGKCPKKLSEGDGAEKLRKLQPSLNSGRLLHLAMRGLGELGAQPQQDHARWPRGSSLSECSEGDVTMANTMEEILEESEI
As to the kind of experiment: Luciferase reporter assay, HEK293/CRE-Luc/hGLP2R (Example 17). (In general: In a reporter assay the amount or activity of a reporter protein is the signal.)

Assay [2] has as its target T2, human gastric inhibitory polypeptide receptor (GIPR) (Homo sapiens, UniProt P48546).
T2 sequence (P48546 22-466): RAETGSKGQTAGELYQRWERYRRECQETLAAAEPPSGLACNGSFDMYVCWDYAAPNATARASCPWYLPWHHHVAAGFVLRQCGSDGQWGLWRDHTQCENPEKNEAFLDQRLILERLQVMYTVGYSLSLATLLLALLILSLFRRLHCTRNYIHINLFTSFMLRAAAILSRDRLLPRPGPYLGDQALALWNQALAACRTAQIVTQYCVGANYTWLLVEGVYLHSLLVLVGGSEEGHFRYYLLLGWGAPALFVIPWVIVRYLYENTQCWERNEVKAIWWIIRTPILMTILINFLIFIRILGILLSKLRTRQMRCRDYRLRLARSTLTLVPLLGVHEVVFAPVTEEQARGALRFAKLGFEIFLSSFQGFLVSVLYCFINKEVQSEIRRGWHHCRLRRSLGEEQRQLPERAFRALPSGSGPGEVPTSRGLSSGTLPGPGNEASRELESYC
As to the kind of experiment: Luciferase reporter assay, HEK293/CRE-Luc/hGIPR (Example 17). The arrangement: expressed in transfected cells; host or cells: HEK293/CRE-Luc. As to conditions: read-out: HEK293/CRE-Luc/hGlPR EC50; Table 28; CRE-dependent luciferase reporter activity.

The target in assay [3] is T3, cynomolgus GLP1R (Macaca fascicularis, UniProt F8V479).
T3 construct: engineered to express full-length human GLP1R, cynomolgus GLP1R; expressed in transfected cells; host or cells: HEK293/CRE-Luc
As to the kind of experiment: Luciferase reporter assay, HEK293/CRE-Luc/mfGLP1R (Example 17). As to conditions: read-out: HEK293/CRE-Luc/mfGLP1R EC50; Table 28; CRE-dependent luciferase reporter activity.

For assay [4], the target named is T4, human glucagon receptor (GCGR) (Homo sapiens, UniProt P47871).
T4 construct: full-length human GLP1R, cynomolgus GLP1R, human glucagon receptor (GCGR); expressed in transfected cells; host or cells: HEK293/CRE-Luc
Put plainly: Luciferase reporter assay, HEK293/CRE-Luc/hGCGR (Example 17). Conditions: read-out: HEK293/CRE-Luc/hGCGR EC50; Table 28; CRE-dependent luciferase reporter activity.

Assay [5] has as its target T1, human glucagon-like peptide 2 receptor (GLP2R). As to the kind of experiment: CRE-luciferase reporter assay, HEK293/Myc-hGLP2R/Cre-Luc (Example 9). Conditions: read-out: HEK293/Myc-hGLP2R/Cre-Luc EC50, Table 9.
Assay [6] addresses human GLP1R (Homo sapiens, UniProt P43220). As to the kind of experiment: Luciferase reporter assay, HEK293/CRE-Luc/hGLP1R (Example 17). Also on record: engineered to express full-length human GLP1R, cynomolgus GLP1R; expressed in transfected cells; host or cells: HEK293/CRE-Luc. Conditions: Table 28; CRE-dependent luciferase reporter activity.
The mark [7] stands for this setting: read-out: HEK293/CRE-Luc/hGLP2R EC50, Table 28, CRE-dependent luciferase reporter activity.

In the case of GCG [reference compound], the EC50 in assay [1] (setting [7]) and in assay [2] was over 200 nM throughout.

In the case of GIP, the EC50 in assay [3], in assay [1] (setting [7]) and in assay [4] was over 200 nM in each case.

As to GLP2, the EC50 is 0.0123 nM in assay [5]; over 200 nM in assay [3]; 1.09 nM in assay [1] (read-out: EC50 / activity, HEK293/CRE-Luc/hGLP2R, text b1834 (Table 28)); 1.09 nM in assay [1] (setting [7]); over 200 nM in assay [4]; over 200 nM in assay [2]. In assay [6], this substance gave an EC50 of over 200 nM.
